Sequences of proteins named here, by UniProt entry; tags and fusion partners are left off. A change or cut given only in a name is not applied to a line headed by its entry.
UniProt O75530: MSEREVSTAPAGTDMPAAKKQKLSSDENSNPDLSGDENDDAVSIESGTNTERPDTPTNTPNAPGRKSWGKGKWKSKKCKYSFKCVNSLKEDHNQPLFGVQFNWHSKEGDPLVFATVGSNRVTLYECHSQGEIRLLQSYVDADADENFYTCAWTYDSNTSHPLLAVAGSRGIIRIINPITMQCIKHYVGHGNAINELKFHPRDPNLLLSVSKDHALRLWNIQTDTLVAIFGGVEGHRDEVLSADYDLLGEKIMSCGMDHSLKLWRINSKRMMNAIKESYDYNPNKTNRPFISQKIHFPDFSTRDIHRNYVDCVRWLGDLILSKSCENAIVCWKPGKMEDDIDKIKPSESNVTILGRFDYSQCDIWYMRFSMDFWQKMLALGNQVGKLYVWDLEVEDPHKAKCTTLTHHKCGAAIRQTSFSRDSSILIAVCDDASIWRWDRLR
UniProt Q15022: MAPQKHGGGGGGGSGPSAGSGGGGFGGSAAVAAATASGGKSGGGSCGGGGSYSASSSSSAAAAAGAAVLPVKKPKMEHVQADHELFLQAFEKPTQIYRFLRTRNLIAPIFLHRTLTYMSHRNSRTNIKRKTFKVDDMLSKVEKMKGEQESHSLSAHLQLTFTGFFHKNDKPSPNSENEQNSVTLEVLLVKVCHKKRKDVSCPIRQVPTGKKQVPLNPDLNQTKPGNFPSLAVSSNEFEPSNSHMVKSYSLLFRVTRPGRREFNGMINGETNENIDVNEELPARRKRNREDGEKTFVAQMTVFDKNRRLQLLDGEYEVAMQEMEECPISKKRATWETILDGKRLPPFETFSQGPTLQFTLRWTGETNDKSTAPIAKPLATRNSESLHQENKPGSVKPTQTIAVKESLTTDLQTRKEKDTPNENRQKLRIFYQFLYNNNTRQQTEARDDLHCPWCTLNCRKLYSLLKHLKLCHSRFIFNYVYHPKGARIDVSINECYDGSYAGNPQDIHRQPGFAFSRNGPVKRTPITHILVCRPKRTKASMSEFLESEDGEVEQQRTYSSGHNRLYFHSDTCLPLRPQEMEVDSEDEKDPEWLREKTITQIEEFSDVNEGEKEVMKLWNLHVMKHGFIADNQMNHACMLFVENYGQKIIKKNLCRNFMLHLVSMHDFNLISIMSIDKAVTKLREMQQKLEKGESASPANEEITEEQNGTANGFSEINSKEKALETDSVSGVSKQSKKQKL
UniProt Q15910, whole entry: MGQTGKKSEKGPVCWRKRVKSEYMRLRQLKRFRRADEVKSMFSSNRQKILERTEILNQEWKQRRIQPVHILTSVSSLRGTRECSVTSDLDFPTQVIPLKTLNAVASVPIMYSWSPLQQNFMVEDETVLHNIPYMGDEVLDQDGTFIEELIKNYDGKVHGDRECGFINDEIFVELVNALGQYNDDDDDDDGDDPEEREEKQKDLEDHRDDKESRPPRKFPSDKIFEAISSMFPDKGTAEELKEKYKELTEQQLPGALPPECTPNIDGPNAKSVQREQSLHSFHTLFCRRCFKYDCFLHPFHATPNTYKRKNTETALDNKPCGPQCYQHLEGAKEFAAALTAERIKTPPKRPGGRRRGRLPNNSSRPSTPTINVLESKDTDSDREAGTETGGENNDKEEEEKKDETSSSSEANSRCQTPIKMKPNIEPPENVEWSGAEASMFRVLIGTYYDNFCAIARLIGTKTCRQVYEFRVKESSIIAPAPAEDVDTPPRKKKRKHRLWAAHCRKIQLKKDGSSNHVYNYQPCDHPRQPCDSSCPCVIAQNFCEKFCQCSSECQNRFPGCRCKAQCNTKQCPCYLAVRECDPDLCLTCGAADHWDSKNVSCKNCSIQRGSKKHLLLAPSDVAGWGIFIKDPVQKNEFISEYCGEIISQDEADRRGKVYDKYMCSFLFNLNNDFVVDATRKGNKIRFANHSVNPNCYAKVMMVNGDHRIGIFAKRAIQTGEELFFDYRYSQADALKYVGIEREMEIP

According to ChEMBL document CHEMBL4477241, “Structure-Activity Relationship Studies for Enhancer of Zeste Homologue 2 (EZH2) and Enhancer of Zeste Homologue 1 (EZH1) Inhibitors” (J Med Chem, 2016):

Target: Histone-lysine N-methyltransferase EZH2 (Homo sapiens, UniProt O75530+Q15022+Q15910)
Experiment: Inhibition of EZH2 histone methyltransferase activity of EZH2/EED/SUZ12 protein complex (unknown origin) using histone H3 peptide as substrate (21 to 44 residues) in presence of [3H]-S-adenosylmethionine after 2 hrs by scintillation proximity assay
Method in brief: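 20 nM EZH2 trimeric complex with 2 μM 3H-SAM and 1 μM biotinylated H3(21–44) in 20 mM Tris-HCl pH 8, 5 mM DTT, 0.01% Triton X-100. Incubated 1 h at 23 °C, quenched with guanidine hydrochloride, then 2 h streptavidin flash-plate capture. Activity scaled between no-compound and no-enzyme counts. Compounds titrated 0.3 nM–5 μM in triplicate; IC50 by four-parameter logistic fit.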

SMILES: Cc1cc(C)c(CNC(=O)c2cc(-c3ccc(N4CCN(C(C)C)CC4)nc3)cc3c2cnn3C(C)C)c(=O)[nH]1
- IC50: 12 nM
